# Cyclic peptide permeability, from CycPeptMPDB

Values of Furukawa et al. 2016, doi:10.1021/acs.jmedchem.6b01246, as listed in CycPeptMPDB.

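Lipid, pH, incubation time, direction and concentration are not recorded in the data file. Other peptides of the study may be missing here. Entries at the database's floor value (log10 P of -10) are not listed.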

PAMPA measures passive passage through an artificial lipid membrane. Permeability is in 10^-6 cm/s, converted from the database's log10 values; higher is more permeable.

* CCCC[C@@H]1NC(=O)[C@H](CC(C)C)N(C)C(=O)CN(CCOc2ccccc2)C(=O)[C@H](Cc2ccccc2)NC(=O)CN(Cc2ccc(Cl)cc2)C(=O)[C@H]2CCCN2C1=O: PAMPA 0.0044 × 10^-6 cm/s
* CCCC[C@@H]1NC(=O)[C@H](CC(C)C)N(C)C(=O)CN(CCCc2cnn(C)c2)C(=O)[C@H](Cc2ccc3ccccc3c2)NC(=O)CN(CC)C(=O)[C@H]2CCCN2C1=O: PAMPA 3.4 × 10^-6 cm/s
* CCCCCN1CC(=O)N(C)[C@@H](CC(C)C)C(=O)N[C@@H](CCCC)C(=O)N2CCC[C@@H]2C(=O)N(Cc2cc(CC(C)C)on2)CC(=O)N[C@@H](Cc2ccc3ccccc3c2)C1=O: PAMPA 0.011 × 10^-6 cm/s
* CCCC[C@@H]1NC(=O)[C@H](CC(C)C)N(C)C(=O)CN(CCOc2ccccc2)C(=O)[C@H](Cc2ccccc2)NC(=O)CN(Cc2cc(CC(C)C)on2)C(=O)[C@H]2CCCN2C1=O: PAMPA 0.072 × 10^-6 cm/s
* CCCCCN1CC(=O)N(C)[C@@H](CC(C)C)C(=O)N[C@@H](CCCC)C(=O)N2CCC[C@@H]2C(=O)N(CCCOC(C)C)CC(=O)N[C@@H](Cc2ccc3ccccc3c2)C1=O: PAMPA 0.065 × 10^-6 cm/s
* CCCC[C@@H]1NC(=O)[C@H](CC(C)C)N(C)C(=O)CN(CCCc2ccccc2)C(=O)[C@H](C)NC(=O)CN(CCCOC(C)C)C(=O)[C@H]2CCCN2C1=O: PAMPA 13 × 10^-6 cm/s
* CCCC[C@@H]1NC(=O)[C@H](CC(C)C)N(C)C(=O)CN(CC2CCOCC2)C(=O)[C@H](C)NC(=O)CN(Cc2cc(CC(C)C)on2)C(=O)[C@H]2CCCN2C1=O: PAMPA 2.2 × 10^-6 cm/s
* CCCC[C@@H]1NC(=O)[C@H](CC(C)C)N(C)C(=O)CN(CCCc2cnn(C)c2)C(=O)[C@H](Cc2ccccc2)NC(=O)CN(Cc2cc(CC(C)C)on2)C(=O)[C@H]2CCCN2C1=O: PAMPA 2.3 × 10^-6 cm/s
* CCCC[C@@H]1NC(=O)[C@H](CC(C)C)N(C)C(=O)CN(CCc2cccnc2)C(=O)[C@H](CC(C)C)NC(=O)CN(Cc2ccc(Cl)cc2)C(=O)[C@H]2CCCN2C1=O: PAMPA 4.4 × 10^-6 cm/s
* CCCC[C@@H]1NC(=O)[C@H](CC(C)C)N(C)C(=O)CN(CCc2cccnc2)C(=O)[C@H](Cc2ccccc2)NC(=O)CN(Cc2cc(CC(C)C)on2)C(=O)[C@H]2CCCN2C1=O: PAMPA 2.7 × 10^-6 cm/s
* CCCCCN1CC(=O)N(C)[C@@H](CC(C)C)C(=O)N[C@@H](CCCC)C(=O)N2CCC[C@@H]2C(=O)N(Cc2cc(CC(C)C)on2)CC(=O)N[C@@H](C)C1=O: PAMPA 10 × 10^-6 cm/s
* CCCC[C@@H]1NC(=O)[C@H](CC(C)C)N(C)C(=O)CN(CCOC)C(=O)[C@H](Cc2ccc3ccccc3c2)NC(=O)CN(Cc2ccc(Cl)cc2)C(=O)[C@H]2CCCN2C1=O: PAMPA 0.015 × 10^-6 cm/s
* CCCC[C@@H]1NC(=O)[C@H](CC(C)C)N(C)C(=O)CN(Cc2ccccc2)C(=O)[C@H](CC(C)C)NC(=O)CN(CC)C(=O)[C@H]2CCCN2C1=O: PAMPA 10 × 10^-6 cm/s
* CCCC[C@@H]1NC(=O)[C@H](CC(C)C)N(C)C(=O)CN(CCc2cccnc2)C(=O)[C@H](Cc2ccc3ccccc3c2)NC(=O)CN(CC(C)C)C(=O)[C@H]2CCCN2C1=O: PAMPA 3 × 10^-6 cm/s
* CCCCCN1CC(=O)N(C)[C@@H](CC(C)C)C(=O)N[C@@H](CCCC)C(=O)N2CCC[C@@H]2C(=O)N(CC(C)C)CC(=O)N[C@@H](Cc2ccccc2)C1=O: PAMPA 1.1 × 10^-6 cm/s
* CCCC[C@@H]1NC(=O)[C@H](CC(C)C)N(C)C(=O)CN(CCCc2ccccc2)C(=O)[C@H](Cc2ccccc2)NC(=O)CN(Cc2ccc3c(c2)OCO3)C(=O)[C@H]2CCCN2C1=O: PAMPA 0.0098 × 10^-6 cm/s
* CCCC[C@@H]1NC(=O)[C@H](CC(C)C)N(C)C(=O)CN(CCOc2ccccc2)C(=O)[C@H](C)NC(=O)CN(CC)C(=O)[C@H]2CCCN2C1=O: PAMPA 3.5 × 10^-6 cm/s